TrxR1 inh: blocks rat thioredoxin reductase 1 | recombinant rTrxR1, NADPH fluorescence consumption, selenite substrate | Potency, µM (top dose mostly 114 µM), hits mostly inhibitors | 390,000 tested, 1% active | AID 588453; further: nearly all actives have a fitted effect of over 65% in size
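Rat TrxR1 (90 nM in the dispensed reagent) was pre-reduced with 400 uM NADPH for 5 min at room temperature, then incubated with compound for 15 min. After 400 uM selenite was added, NADPH fluorescence (Ex 340/Em 450 nm) was followed for 8 min.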
PINK1 modulator: PINK1 expression modulation; PINK1 immunofluorescence, high-content cytometry, 24 h; Potency, µM (highest dose often 76.6 µM), hits mostly activators; 410,000 tested, 0.2% active; active means well fitted activation curve with a large enough effect; inconclusive means small, poorly fitted or top-dose-only effect; cell line not stated here; further: nearly all actives have a fitted effect of over 65% in size
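Compound titrations (5 concentrations, 24 h) on a stable cell line; DMSO and CCCP controls. Endpoint: fixed-cell PINK1 immunofluorescence with mitochondrial, cell and nuclear markers, scanned by microplate cytometer.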
miR-21 FLuc: miR-21 reporter, rising signal | AID 2288 | HeLa miR-21 FLuc reporter, luciferase, 48 h | 340,000 tested, under 10 active | Potency, µM (titrated, usually from 38.3 µM); active = well fitted rising curve with a large enough effect; inconclusive = small, poorly fitted or top-dose-only effect; inactive = no such curve, though single readings can be large or run the other way;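 also: miR-21 action dims this reporter so a rising signal means less miR-21 action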
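Using DMEM plus 10% FBS, HeLa miR-21-FLuc cells are incubated with test compounds (final up to about 40uM) for 48 hours; firefly luciferase signal is then imaged following reagent-mediated lysis.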
TrxR1 substrate: substrates of rat thioredoxin reductase 1; O89049; purified TrxR1 substrate turnover, NADPH consumption readout; Potency, µM (doses to about 114 µM); 390,000 tested, 0.01% active; AID 588456; further: nearly all actives have a fitted effect of over 50% in size
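Rat TrxR1, dispensed at 90 nM, was prereduced with 400 uM NADPH (final) for 5 min at ~22 deg C, then incubated with compound 15 min before 400 uM selenite. A first-read NADPH fluorescence drop versus no-compound background flagged substrates.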
GALK inh: blocks human galactokinase activity; 270,000 tested, 0.007% active; P51570; AID 1868; Purified GALK, Kinase-Glo residual ATP luminescence; Potency, µM (highest dose often 57.5 µM), most hits filed as inhibitors
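Luminescence from leftover ATP (Ultra-Glo luciferase/luciferin) served as read-out after a 1 h room-temperature reaction of 5 nM GALK with 35 uM ATP and 100 uM galactose.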
Each line names hits and unclear results; the compound was inactive in the other large screens. A selection: hits, their analogues and other compounds. The true share with any hit is near 1.1%. Unless noted, the call rests on the fitted dose curve; in most records, active means well fitted curve in the direction sought with a large enough effect; inconclusive means small, poorly fitted or top-dose-only effect, or another doubt; inactive means no such curve, though single readings can be large; an effect the other way counts as inactive or inconclusive.

CSc1ccc(OC2(C)CCN(Cc3ccccc3)C2)cc1 (stereo not drawn)	none (no result: TrxR1 inh, miR-21 FLuc, TrxR1 substrate, GALK inh)
CC(C)(C)C1C=C(Sc2ccccc2)C(=O)O1 (stereo not drawn)	PINK1 modulator 16µM
CCc1cccc(CC)c1NC(=S)NCCc1ccc(O)c(O)c1	TrxR1 inh 6.3µM
CCc1cccc(CC)c1NC(=S)NCCc1c(C)[nH]c2ccccc12	none (no result: GALK inh)
COC(=O)c1ccc(/C=C(\C#N)C(=O)NC(C)c2ccccc2)cc1 (stereo not drawn)	TrxR1 inh 22µM
COc1ccc(/C=C(\C#N)C(=O)NC(C)c2ccccc2)cc1O (stereo not drawn)	none
CC(NC(=O)/C(C#N)=C/c1ccco1)c1ccccc1 (stereo not drawn)	none
CCOCCCNC(=O)/C(C#N)=C/c1ccc([N+](=O)[O-])o1	TrxR1 inh 3.2µM
CC(NC(=O)/C(C#N)=C/c1ccc([N+](=O)[O-])o1)c1ccccc1 (stereo not drawn)	TrxR1 inh 7.9µM, miR-21 FLuc inconclusive
CCOc1cc(-c2ccc(OC(=O)c3ccccc3F)cc2)cc(=O)c2c(C)oc(C)c12	none (no result: GALK inh)
O=S(=O)(c1ccc2c(c1)OCCO2)N1CCC(c2nc3ccccc3s2)CC1	PINK1 modulator 11µM
O=C(O)c1ccc2c(c1)[C@@H]1C=CC[C@@H]1[C@H](c1ccccn1)N2	TrxR1 inh 4µM (no result: miR-21 FLuc, GALK inh)
Cc1cccc(NS(=O)(=O)c2ccc3c(c2)[C@H]2C=CC[C@H]2[C@@H](c2ccc(F)cc2)N3)c1	none (no result: GALK inh)
Fc1ccc([C@@H]2Nc3ccccc3[C@@H]3C=CC[C@@H]32)cc1	TrxR1 inh 28µM (no result: GALK inh)
COc1cccc(NS(=O)(=O)c2ccc3c(c2)C2C=CCC2C(c2ccc(C(=O)O)cc2)N3)c1 (stereo not drawn)	TrxR1 inh 40µM
COC(=O)c1ccc([C@H]2Nc3ccc(S(=O)(=O)Nc4ccc(F)cc4)cc3[C@H]3C=CC[C@H]32)cc1	TrxR1 inh 71µM (no result: GALK inh)
CCCCCCSc1cccc(-c2nc3ccc(C)cn3c2NCc2ccccc2)c1	PINK1 modulator 25µM (no result: miR-21 FLuc, GALK inh)
COc1ccc(S(=O)(=O)N2CCCN(CC(=O)Nc3ccc4c(c3)OCO4)CC2)cc1	TrxR1 inh 79µM
O=C(CN1CCCN(S(=O)(=O)c2ccc(Br)cc2)CC1)Nc1ccc2c(c1)OCO2	none (no result: TrxR1 inh, PINK1 modulator, TrxR1 substrate)
COc1ccc(S(=O)(=O)N2CCCN(CC(=O)C(C)(C)C)CC2)cc1	TrxR1 inh 13µM
Cc1ccc(C(=O)Nc2cccc(-c3nc(CNC(=O)c4ccc5ccccc5n4)c(C)o3)c2)s1	none (no result: TrxR1 inh, miR-21 FLuc, TrxR1 substrate, GALK inh)
CCOc1ccccc1N1C(=O)CC(Sc2n[nH]c(-c3ccccc3)n2)C1=O (stereo not drawn)	TrxR1 inh 1µM
CCCN1C(=O)S/C(=C\c2ccc(N3CCOCC3)o2)C1=O	TrxR1 inh 7.9µM, miR-21 FLuc inconclusive
CCCN1C(=O)S/C(=C\c2ccc(N3CCOCC3)cc2C)C1=O	none (no result: TrxR1 inh, PINK1 modulator, TrxR1 substrate)
CCCN1C(=O)S/C(=C/c2ccc(N3CCOCC3)o2)C1=O	TrxR1 inh 28µM, PINK1 modulator 40µM
CCN1C(=O)S/C(=C\c2ccc(N3CCOCC3)cc2C)C1=O	none
COC(=O)c1c(-c2cccs2)csc1NC(=O)COc1ccc(C(C)C)cc1	none (no result: GALK inh)
O=c1c(C(c2nnnn2C2CCCCC2)N2CCCCC2)coc2ccc(Cl)cc12 (stereo not drawn)	TrxR1 inh 28µM
Clc1ccc(C(c2nnnn2C2CCCC2)N2CCN(Cc3ccncc3)CC2)cc1 (stereo not drawn)	none
Cc1ccc(Sc2c([N+](=O)[O-])c(=O)n(C)c3ccccc23)cc1	TrxR1 inh 2µM
Cc1cc(C)cc(NC(=O)c2cc(C)nc3c2c(C)nn3-c2ccccc2)c1	TrxR1 inh 79µM (no result: GALK inh)
Cc1nn(-c2ccccc2)c2nc(-c3ccncc3)cc(C(=O)NCc3ccco3)c12	TrxR1 inh 50µM
Cc1nn(-c2ccccc2)c(C)c1C(=O)OCC(=O)NCc1ccco1	TrxR1 inh 56µM
Cc1cccc(C)c1-n1nnnc1C1(C)CCC(=O)N1Cc1ccco1 (stereo not drawn)	none (no result: TrxR1 inh, miR-21 FLuc, TrxR1 substrate, GALK inh)
Cc1ccc2nc(N3CCN(c4cccc(C(F)(F)F)c4)CC3)c3nnnn3c2c1	none (no result: GALK inh)
CCCCCCCCCC[n+]1ccc(/C=C/c2c(C)[nH]c3ccccc23)c2ccccc21	TrxR1 inh inconclusive (no result: PINK1 modulator, miR-21 FLuc, GALK inh)

From PubChem BioAssay
